Target: recombinant 17bHSD4 (M1-N311) (Homo sapiens (Human), UniProt P51659)
Assay: In Vitro 17bHSD4 Enzyme Assay
Format: biochemical
Conditions: 40 nM 17bHSD4, 0.125 mM NAD, 15 μM Estradiol, 1.5 h; NADH fluorescence; read-out: 17HSD17b4 Enzyme assay IC50
Description: In Vitro 17bHSD4 Enzyme Assay
10 concentration of compounds (0.2 μl) in DMSO was added to GREINER FLUOTRAC 200 384 well plate (781076) using ECHO dispensing (BECKMAN COULTER). 80 nl of 10 mM Estradiol (SIGMA, E8875) was added using Echo dispensing. The enzyme reaction was initiated by addition, using MULTIDROP COMBI dispensing (THERMO FISHER), of 40 μl of a mix containing recombinant 17bHSD4 (M1-N311) and NAD. Final assay conditions were 40 nM of 17bHSD4, 0.125 mM of NAD, 15 μM Estradiol and various concentrations of compound in buffer (5 mM EDTA (TEKNOVA E0306), 0.01% DDM (AFFYMETRIX D310) in 50 mM Tris-Cl, pH 7.4). After each addition plates were centrifuged for 1 min at 150×g (EPPENDORF, 5810R, A-4-81). NADH formation was measured by fluorescence intensity (FI) (Ex360/Em460) at time zero (to) and at 1.5 h (t1) in a PHERASTAR FSX (BMG LABTECH). FI for each sample was calculated as FI at t1 minus FI at t0.
[…] […] was used for curve fitting and calculation of IC50 values.
Compound effect was calculated with the formula below;
where X represents the effect in the presence of test compound, min is DMSO and max is the maximum inhibition of enzyme using a known inhibitor as control.

Sequences of proteins named here, by UniProt entry; tags and fusion partners are left off. Residues count along the entry.
UniProt P51659, 1-311: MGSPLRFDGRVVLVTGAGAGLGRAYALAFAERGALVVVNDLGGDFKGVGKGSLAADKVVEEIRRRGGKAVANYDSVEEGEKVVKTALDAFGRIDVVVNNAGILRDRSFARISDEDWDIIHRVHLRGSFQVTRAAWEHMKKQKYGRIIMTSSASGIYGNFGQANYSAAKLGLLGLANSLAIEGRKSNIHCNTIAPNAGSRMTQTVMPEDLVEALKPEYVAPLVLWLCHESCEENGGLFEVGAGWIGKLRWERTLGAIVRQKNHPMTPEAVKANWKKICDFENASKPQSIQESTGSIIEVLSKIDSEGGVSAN

- IC50: 7 µM
SMILES: O=C(c1noc(-c2cc(F)c(F)c(O)c2F)n1)N1CC2CC2(c2ccccc2)C1 (stereo not shown) [Example 77, (1-Phenyl-3-azabicyclo[3.1.0]hexan-3-yl)(5-(2,4,5-trifluoro-3-hydroxyphenyl)-1,2,4-oxadiazol-3-yl)methanone]

— patent US20250011311A1, “AMIDO HETEROAROMATIC COMPOUNDS” (AstraZeneca AB, priority 2022, published 2025)
